From PMC12022103, “Rational design of synthetic antimicrobial peptides based on the Escherichia coli ShoB toxin” (Scientific Reports, 2025) come the findings set out here.

Amino acid sequences for entries named in this document (tags omitted). Residues count along the entry.
UniProt P00761, 9-231: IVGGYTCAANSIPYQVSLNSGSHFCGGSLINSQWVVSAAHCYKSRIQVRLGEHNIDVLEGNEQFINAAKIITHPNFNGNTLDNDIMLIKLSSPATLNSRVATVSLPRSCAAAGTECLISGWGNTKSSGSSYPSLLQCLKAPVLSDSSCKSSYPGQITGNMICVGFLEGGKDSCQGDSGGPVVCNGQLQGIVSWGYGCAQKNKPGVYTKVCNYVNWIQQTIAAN

SMILES strings stand for the structures. Values after ≈ are worked out from the molar mass of the structure shown.

The target in series [1] is T1, trypsin (Sus scrofa, UniProt P00761).
T1 construct: purchased Gibco 11580626
Nature of the series: Protease stability assessment (trypsin pre-incubation, then growth inhibition of E. coli). Format: in vitro ADME. As to conditions: 37 °C. As for the experimental part: Trypsin solution was prepared by dissolution of Trypsin (Gibco™ Trypsin-EDTA (0.05%), phenol red, 11580626) in PBS (pH 7) to obtain a final concentration of 0.25 mg/mL. Peptides were two-fold serially diluted in trypsin solution in 96-well plates (Greiner, MICROPLATE, 96 WELL, PP, U-BOTTOM, NATURAL, 650261) and incubated for 1–6 h at 37 °C. The plates were subsequently heated at 60 °C for 15 min to terminate the enzyme reaction. Bacterial susceptibility was next assessed by adding an equal volume of E. coli ATCC 25922 inoculum to the wells and following the protocol of the above described MIC assay.

Series [2] concerns E. coli. Nature of the series: Cell morphology by phase contrast microscopy. Format: cell-based, Escherichia coli. Conditions: 10× MIC, 5 min exposure, preliminary. How it is done: To explore the potential correlation between general membrane destabilization and our FoR data, we conducted a brief preliminary examination of E. coli cell morphology following a pulsed exposure to our top four peptide candidates at 10× MIC. Cells were imaged by using phase contrast microscopy after 5 min of exposure. […] However, additional research using complementary techniques are necessary to conclusively characterize their killing mechanism.

The subject of series [3] is E. coli ATCC 25922. Nature of the series: Minimum inhibitory concentration (MIC), broth dilution. Format: cell-based, Escherichia coli. Conditions: two-fold dilution in MH II broth, 5 × 10^5 CFU/mL, 18–24 h, 37 °C, OD600, triplicate, highest number reported, detection limit <0.5 and >128 µM. As for the experimental part: The panel of bacterial reference strains used in this work for assessment of synthetic peptide activity originated from the American Type Culture Collection (ATCC) and was obtained from the Diagnostic section at the Department of Microbiology, Oslo University Hospital. The strains used were as follows: E. coli ATCC 25922, K. pneumoniae ATCC 13883, A. baumannii ATCC 17978, S. aureus ATCC 29213, and E. faecalis ATCC 29212.
Bacterial strains were plated on cation-adjusted Mueller-Hinton (MH II) agar plates and incubated at 37 °C overnight. The day after single colonies were picked and resuspended in sterile-filtered saline (0.9%). The OD of each bacterial suspension was adjusted to McFarland standard 0.5 using a spectrophotometer (UV-1800, Shimadzu), and the suspension further diluted 1:100 in MH II broth, corresponding to 10^6 colony forming units (CFU) per mL. […] After overnight incubation at 37 °C, colonies were counted. […]
The peptides were serially diluted (two-fold) directly in 96-well plates (Greiner, MICROPLATE, 96 WELL, PP, U-BOTTOM, NATURAL, 650261) containing MH II broth, corresponding to concentrations in the range 256–0.5 µM. […] The 96-well plates were incubated for 18–24 h at 37 °C, after which the OD of each well was measured at 600 nm in a plate reader (Victor Nivo, Perkin-Elmer). […]

The test system of series [4] is E. coli ATCC 25922. Nature of the series: Frequency of resistance determination (p0 method). The class given is cell-based, Escherichia coli. As to conditions: E. coli ATCC 25922, 40 cultures, 4 × MIC, 24–48 h, colistin as reference, triplicate. From the text: The method was based on the Fluctuation assay (p0 method; Luria and Delbrück) for determination of mutation rate[33],[34], and optimized for selection of mutants in liquid medium. Colistin sulfate (Thermo Scientific, 15575146) served as control in experimentation. Initially, the MIC of colistin and peptides was verified through broth dilution in 96-well plates (as detailed above). In order to account for potential phenotypic heterogeneity among colonies derived from the same frozen stock, multiple colonies of E. coli ATCC 25922 were picked and inoculated in 2 mL MHII broth overnight at 37°C with continuous shaking. The following day, aliquots of colistin and peptide solutions were prepared in MHII broth at working concentrations 20 times the MIC. […] The plates were incubated at 37 °C in a humidified box, and OD was measured at 600 nm using a microplate reader (Victor Nivo, Perkin-Elmer) after 0, 24 and 48 h of incubation. […]
To calculate the viable bacterial counts, the overnight culture was serially diluted 10-fold in MHII, after which 5 µl of the 10^− 3 – 10^− 9 dilutions were spotted onto MHII agar plates and incubated overnight at 37 °C. CFUs were counted the following day to determine CFU/mL of the overnight culture. […] The mutation rate, or frequency of resistance, was calculated using the following formula: […]

As to `CC[C@@H](C)[C@@H](NC(=O)[C@@H](CC(C)C)NC(=O)[C@@H](CCC(N)=O)NC(=O)[C@@H](CC(C)C)NC(=O)[C@H](NC(=O)[C@@H](C)NC(=O)[C@@H](CCCCN)NC(=O)[C@@H](CCCCN)NC(=O)[C@@H](CCCCN)NC(=O)[C@H](CCCCN)NC(=O)[C@H](CCCCN)NC(=O)[C@@H](NC(=O)[C@H](CCCNC(=N)N)NC(=O)[C@H](CCCCN)NC(=O)[C@@H](NC(=O)[C@H](CC(C)C)NC(=O)[C@H](Cc1ccc(O)cc1)NC(=O)[C@H](CCCNC(=N)N)NC(=O)CNC(=O)[C@H](CC(=O)O)NC(=O)[C@@H](NC(=O)[C@@H](N)CCSC)[C@@H](C)O)[C@@H](C)CC)C(C)C)C(C)C)C(=O)N[C@H](CC(C)C)C(=O)N[C@H](CCCCN)C(=O)N[C@H](Cc1ccccc1)C(=O)N[C@H](CC(C)C)C(=O)O` [D-1a], the “Fold reduction of apparent MIC after incubation with trypsin” value in series [1] (0.125 mg/mL trypsin, 1–6 h, E. coli ATCC 25922) amounted to 8 fold. Moreover, the “Apparent MIC after incubation with trypsin” value in series [1] (pre-incubation with 0.125 mg/mL trypsin in PBS pH 7, 1 h or 6 h, then 60 °C 15 min, E. coli ATCC 25922 growth (OD) after 20–23 h, triplicate) was 2 µM. The “Membrane morphology of cells (in words)” value in series [2] was “indications of changes in membrane morphology”. Further, the “MIC, E. coli” value in series [3] is reported as 16 µM (≈ 50.1 µg/mL). The “Frequency of resistance (FoR) (in words)” value in series [4] is “eliminated mutagenicity”.
